The results in this text go back to paper PMC8541017, “Potent and Selective Inhibitors of Human Monoamine Oxidase A from an Endogenous Lichen Fungus Diaporthe mahothocarpus” (Journal of Fungi, 2021).

Amino acid sequences for entries named in this document (tags omitted).
UniProt P21397, whole entry: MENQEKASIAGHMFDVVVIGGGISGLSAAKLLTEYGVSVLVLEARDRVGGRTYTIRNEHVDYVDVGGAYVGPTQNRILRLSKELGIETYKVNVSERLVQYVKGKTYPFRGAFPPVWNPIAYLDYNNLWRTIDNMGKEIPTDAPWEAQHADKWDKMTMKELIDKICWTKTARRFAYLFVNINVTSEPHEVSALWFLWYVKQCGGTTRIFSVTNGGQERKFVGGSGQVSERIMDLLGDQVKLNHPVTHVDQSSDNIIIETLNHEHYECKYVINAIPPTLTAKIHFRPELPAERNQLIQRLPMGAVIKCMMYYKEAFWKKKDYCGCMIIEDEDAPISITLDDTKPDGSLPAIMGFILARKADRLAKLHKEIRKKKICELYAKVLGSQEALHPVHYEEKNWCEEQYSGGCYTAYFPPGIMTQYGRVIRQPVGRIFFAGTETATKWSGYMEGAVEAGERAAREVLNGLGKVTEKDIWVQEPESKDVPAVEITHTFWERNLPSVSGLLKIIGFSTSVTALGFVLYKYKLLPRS

The assay has as its target hMAO-A (Homo sapiens, UniProt P21397). Type of assay: biochemical.

With `C#CCN(C)CCCOc1ccc(Cl)cc1Cl` [Clorgyline, reference compound], the “residual hMAO-A activity after dialysis” value is reported as 14.9%, the “residual hMAO-A activity before dialysis” value was determined as 19.7% and the “reversibility of hMAO-A inhibition” value is reported as “no recovery at all”.
